Laboratory results as given in ChEMBL document CHEMBL3352054, “Discovery of new 7-substituted-4-imidazolylmethyl coumarins and 4'-substituted-2-imidazolyl acetophenones open analogues as potent and selective inhibitors of steroid-11β-hydroxylase” (Eur J Med Chem, 2015).

Molecular target: T1, Cytochrome P450 11B2, mitochondrial (Homo sapiens, UniProt P19099)
T1 sequence (P19099 whole entry): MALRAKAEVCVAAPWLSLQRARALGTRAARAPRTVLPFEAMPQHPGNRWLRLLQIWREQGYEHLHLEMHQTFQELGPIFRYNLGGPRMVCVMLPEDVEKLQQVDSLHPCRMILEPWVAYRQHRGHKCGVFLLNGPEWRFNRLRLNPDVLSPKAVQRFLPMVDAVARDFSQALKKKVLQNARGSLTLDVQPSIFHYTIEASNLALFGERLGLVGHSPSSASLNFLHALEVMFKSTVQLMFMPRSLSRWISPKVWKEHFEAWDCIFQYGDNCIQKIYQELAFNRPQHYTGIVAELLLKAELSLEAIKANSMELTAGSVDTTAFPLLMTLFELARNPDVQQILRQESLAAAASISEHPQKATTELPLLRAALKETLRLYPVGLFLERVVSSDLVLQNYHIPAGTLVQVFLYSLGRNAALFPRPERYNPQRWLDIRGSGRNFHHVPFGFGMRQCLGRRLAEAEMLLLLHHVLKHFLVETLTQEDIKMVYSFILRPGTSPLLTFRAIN
Assay: Inhibition of human CYP11B2 expressed in hamster V79MZh11B2 cells using [1,2-3H]-11-deoxycorticosterone substrate incubated for 45 mins by HPLC method

IC50: 0.072 µM
SMILES: CC(C)(C(=O)c1cccnc1)c1cccnc1 [METYRAPONE]
